From PubChem BioAssay AID588473 (Sanford-Burnham Center for Chemical Genomics, 2011) come the findings set out here.

The list shows a part of the results, in another mix than the full data. Active and inactive are the calls of the source.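 Rule for the calls: active = activation of at least 50%, plus an integration ratio under a set limit after plate pattern correction; inactive = the rest.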

The test system of this test is CRF-binding protein / CRF receptor 2 complex (human). As to the kind of experiment: activators of CRF-R2 with CRF-BP – cell-based, HEK293, calcium dye fluorescence, uHTS, primary screen (AID 588473).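 Note: plate controls were neutral control wells without compound for no effect and CRF at EC100 for full effect.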 The note with it: calcium dye fluorescence (FLIPR), at 13.2 µM, hits give high values, percent of saturating CRF peptide response.
Regarding `Oc1ccccc1CNc1ccccn1`, the activation was inactive: 0%.

`Nc1cc(N)c2nonc2c1[N+](=O)[O-]`: the activation is inactive: -2.08%.

Take `CC(C)CC(=O)NC(Sc1ccc(Cl)cc1)C(Cl)(Cl)Cl` (stereo unspecified): the activation was inactive: -2.78%.

With `Cc1ccc(N/C(=N/P(=O)(N2CCOCC2)N2CCOCC2)N2CCOCC2)cc1`, the activation was inactive: 8.52%.

On to `CN(C(=O)Cc1ccc(Cl)c(Cl)c1)[C@H]1CCCC[C@H]1N1CCCC1`, for which the activation is inactive: 1.25%.

As for `NC(=O)c1cc([N+](=O)[O-])cc([N+](=O)[O-])c1N`, the activation is inactive: -1.66%.

With `CN1CCCC(OC(=O)C(c2ccccc2)c2ccccc2)C1` (stereo unspecified), the activation was inactive: 4.04%.

With `Clc1ccc(Cl)c(NC2=NCC(CBr)S2)c1` (stereo unspecified), the activation was inactive: 0.57%.

With `Cc1ccc(OP(=O)(Nc2nccs2)Oc2ccc(C)cc2)cc1`, the activation is inactive: 0.37%.

In the case of `COc1ccccc1OP(=O)(Nc1ccc(C)cn1)Oc1ccccc1OC`, the activation was inactive: -0.07%.

As for `Nc1cccc2ccc([As](=O)(O)O)cc12`, the activation is inactive: 0.56%.

With `CCN(N=Nc1nonc1N)c1nonc1N`, the activation was inactive: 0.07%.

As to `O=P(Nc1nc2ccc(Cl)cc2s1)(c1ccccc1)c1ccccc1`, the activation was inactive: 0.2%.

With `CN(C)P(=O)(N(C)C)n1c(Nc2ccccc2)nnc1-c1ccccc1`, the activation was inactive: 16.4%.

For `CCCC1OP(N)(=O)OCC1CC` (stereo unspecified), the activation was inactive: 0.3%.

`CC(=O)Nc1ccc([As](=O)(O)O)cc1`: the activation was inactive: -1.58%.

`O=C(O)c1ccccc1[As](=O)(O)O`: the activation is inactive: 2.22%.

Take `Cc1ccc(NP(=O)(Oc2ccccc2F)Oc2ccccc2F)nc1`: the activation was inactive: -1.44%.

For `CN(C(=O)Cc1ccc(Cl)c(Cl)c1)[C@H]1CCCC[C@@H]1N1CCCC1`, the activation is inactive: 0.07%.

Regarding `Cc1cc(SC(NC(=O)c2ccc(F)cc2)C(Cl)(Cl)Cl)ncn1` (stereo unspecified), the activation was inactive: 0.65%.

Turning to `CCOP(=O)(Nc1ccccc1)OCC`, the activation is inactive: -0.67%.

As for `ClCCSc1nnc(-c2cccnc2)o1`, the activation was inactive: -0.24%.

For the compound `COC(=O)C1(C)COP(=O)(N2CCCCCC2)OC1` (stereo unspecified), the activation was inactive: 0.23%.

Consider `CC(C)c1ccc(OP(=O)(Nc2ccccn2)Oc2ccccc2F)cc1` (stereo unspecified), for which the activation is inactive: 1.31%.

Turning to `O=[N+]([O-])c1cc([N+](=O)[O-])c(-c2ccn[nH]2)s1`, the activation is inactive: -0.28%.

For `CC(C)NC(=O)NP(=O)(Oc1ccccc1)Oc1ccccc1`, the activation was inactive: -2.13%.

Consider `CCN(CC)C(=S)SC(NC=O)C(Cl)(Cl)Cl` (stereo unspecified), for which the activation was inactive: -0.45%.

For the compound `O=C(OC1CN2CCC1CC2)c1cccc2[nH]cnc12` (stereo unspecified), the activation was inactive: -0.83%.

Regarding `O=[N+]([O-])c1ccc(-c2cc([N+](=O)[O-])c(O)c([N+](=O)[O-])c2)cc1`, the activation was inactive: -1.85%.

As to `COc1cc(C(=O)NCC2(N3CCOCC3)CCCCC2)ccc1OCC(C)C`, the activation was inactive: -0.43%.

As for `O=[As](O)(c1ccc(O)cc1)c1ccccc1O`, the activation is inactive: 0.54%.

For the compound `C[As](=O)(O)c1cccc(C(=O)O)c1`, the activation was inactive: 1.53%.

`CC(Cc1ccc(O)cc1)NCC(O)c1cc(O)cc(O)c1` (stereo unspecified): the activation was inactive: -0.09%.

`Cc1ccc(OP(=O)(Nc2ccc([N+](=O)[O-])cn2)Oc2ccc(C)cc2)cc1`: the activation was inactive: 0.32%.

In the case of `Cc1ccc2nc3c(c(C)c2c1)CC(C(Cl)Cl)S3` (stereo unspecified), the activation is inactive: -0.08%.

For the compound `O=[N+]([O-])c1cc(Oc2ccc([N+](=O)[O-])cc2C(F)(F)F)cc([N+](=O)[O-])c1`, the activation is inactive: 4.31%.

With `COc1ccc(N/C(=N/P(=O)(N2CCOCC2)N2CCOCC2)N2CCOCC2)cc1`, the activation was inactive: -0.97%.

Consider `Cc1c2c(nc3ccccc13)SC(C(Cl)Cl)C2` (stereo unspecified), for which the activation is inactive: 0.38%.

As for `Cc1cc(=O)[nH]c(N[N+](=O)[O-])n1`, the activation is inactive: 0.63%.

As to `O=C(OC1CN2CCC1CC2)C12CC3CC(CC(C3)C1)C2` (stereo unspecified), the activation was inactive: 9.85%.

As for `O=P1(N(CCCl)CCCl)OCCCN1CCCl` (stereo unspecified), the activation is inactive: 0.04%.

Regarding `O=P1(N(CCCl)CCCl)Nc2ccccc2N1`, the activation was inactive: 6.32%.

On to `COc1cc(I)ccc1[As](=O)(O)O`, for which the activation is inactive: -0.65%.

As to `COc1ccc2nc(NP(=O)(c3ccccc3)c3ccccc3)sc2c1`, the activation was inactive: -1.29%.

As to `CSc1ccc(Nc2c([N+](=O)[O-])cc([N+](=O)[O-])cc2[N+](=O)[O-])cc1`, the activation is inactive: 40.1%.

Turning to `O=C(OC1CN2CCC1CC2)c1cccc([N+](=O)[O-])c1` (stereo unspecified), the activation was inactive: 0.22%.

Regarding `CCOC(=O)c1ccc(NC(=O)C(C)(CCl)SC)cc1` (stereo unspecified), the activation was inactive: -1.39%.

Take `CCC(C)N(CC(C)C)C(=S)SC(NC(C)=O)C(Cl)(Cl)Cl` (stereo unspecified): the activation was inactive: -2.39%.

As to `COP1(=S)c2c(C)nn(CCC#N)c2N=C(c2ccc(F)cc2)N1C` (stereo unspecified), the activation is inactive: -0.05%.

With `O=C(O)C(=O)c1ccc(N(CCCl)CCCl)cc1`, the activation is inactive: 2.38%.

Take `O=C(Nc1ccncc1[N+](=O)[O-])c1ccc([N+](=O)[O-])cc1[N+](=O)[O-]`: the activation was inactive: -0.74%.

For `O=C(COc1ccccc1)OC1CN2CCC1CC2` (stereo unspecified), the activation is inactive: 2.37%.

Turning to `CCOC(=O)Nc1cccc([As](=O)(O)O)c1`, the activation was inactive: 0.34%.

Take `O=P(Nc1ccccn1)(c1cccc2ccccc12)c1cccc2ccccc12`: the activation was inactive: 31.1%.

As for `Cc1cc(SC(NC=O)C(Cl)(Cl)Cl)ncn1` (stereo unspecified), the activation was inactive: 0.84%.

In the case of `O=[N+]([O-])c1ccc(Nc2ccc(Oc3ccc([N+](=O)[O-])cc3[N+](=O)[O-])cc2)c([N+](=O)[O-])c1`, the activation is inactive: -0.55%.

On to `CCOC(=O)Nc1ccc([As](=O)(O)O)c(O)c1`, for which the activation is inactive: 3.16%.

On to `O=C(O)C(O)c1ccc(N(CCCl)CCCl)cc1` (stereo unspecified), for which the activation is inactive: 2.44%.

Consider `CC1CCNP(=O)(N(CCCl)CCCl)O1` (stereo unspecified), for which the activation was inactive: -2.04%.

For `COP(=O)(OC)N1CC1c1ccccc1` (stereo unspecified), the activation was inactive: 1.96%.

Turning to `Cc1cc(SC(NC(=O)c2ccccc2)C(Cl)(Cl)Cl)nc(C(C)C)n1` (stereo unspecified), the activation was inactive: -1.51%.

For the compound `CCCCOc1ccc(C(=O)NCC2(N3CCCCC3)CCCCC2)cc1OC`, the activation is active: 57.1%.

Regarding `O=P1(Nc2ncccn2)COc2ccccc2OC1`, the activation is inactive: 0.77%.

Take `Nc1cccc([As](=O)(O)c2ccccc2)c1`: the activation is inactive: -3.12%.

As to `Cc1ccc(OCC(=O)OC2CN3CCC2CC3)cc1` (stereo unspecified), the activation is inactive: -1.46%.

Consider `O=[As](O)(c1cccs1)c1cccs1`, for which the activation was inactive: 0.18%.
